According to PubChem BioAssay AID2551 (National Center for Advancing Translational Sciences (NCATS), 2010):
The list shows a part of the results, in another mix than the full data. Some tests of the compounds listed are not included; inactive here does not mean inactive elsewhere. Records with an inconclusive call do not appear. Active and inactive are the calls of the source. Calls come from the whole dose curve; as a rule, active = well fitted inhibition curve with a large enough effect; inconclusive = small, poorly fitted or top-dose-only effect, or effect the other way; inactive = no such curve, though single readings can be large or run the other way.

Amino acid sequences for entries named in this document (tags omitted).
UniProt P51450, whole entry: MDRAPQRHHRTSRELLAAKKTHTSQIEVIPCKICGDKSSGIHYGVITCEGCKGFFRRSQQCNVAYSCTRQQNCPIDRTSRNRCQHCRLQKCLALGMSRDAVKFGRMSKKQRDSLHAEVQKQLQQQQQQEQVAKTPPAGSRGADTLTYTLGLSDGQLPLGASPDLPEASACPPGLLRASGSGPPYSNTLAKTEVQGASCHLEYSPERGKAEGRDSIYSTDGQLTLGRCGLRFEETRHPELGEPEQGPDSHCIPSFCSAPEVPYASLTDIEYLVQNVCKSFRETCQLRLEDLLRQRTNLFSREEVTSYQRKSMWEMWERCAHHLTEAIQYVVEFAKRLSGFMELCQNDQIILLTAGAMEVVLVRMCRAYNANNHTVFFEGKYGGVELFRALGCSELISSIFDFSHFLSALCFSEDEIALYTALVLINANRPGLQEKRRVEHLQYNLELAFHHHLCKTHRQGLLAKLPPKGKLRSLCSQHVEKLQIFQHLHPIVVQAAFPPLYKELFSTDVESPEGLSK

biological target: Nuclear receptor ROR-gamma (Mus musculus) (UniProt P51450); experiment: qHTS for inhibitors of ROR gamma transcriptional activity; conditions: Drosophila S2 Gal4-RORgamma UAS-luciferase reporter, 20 h; at 53.6 µM (top of the series); note: nearly all actives have a fitted effect of over 60% in size
% is set by controls: 0 for no effect and ±100 for the full control effect.

Question: How did the activity change, negative = inhibition turn out when `CN1CCCC(OC(=O)C(O)(c2ccccc2)c2ccccc2)C1` (centres undefined) was run?
Answer: inactive: 6.9%

Question: Which activity change, negative = inhibition does the source give for `Cc1ccccc1C(=O)NCC1(N2CCCCC2)CCCCC1` here?
Answer: inactive: -1.87%

Question: `CN(C)C1CCCC1OC(=O)C(O)(c1ccccc1)c1ccccc1` (centres undefined) was tested. Which activity change, negative = inhibition did it give?
Answer: inactive: -27.3%

Question: For `CN(C)c1ccc(C(=O)NCC2(N(C)C)CCCCC2)cc1`, which activity change, negative = inhibition is on record?
Answer: inactive: -2.41%

Question: For `Cc1cc(C(=O)NCC2(N3CCCCC3)CCCCC2)ccc1[N+](=O)[O-]`, which activity change, negative = inhibition is on record?
Answer: inactive: 0.0494%

Question: For `CCN1CCCC(OC(=O)C2(O)c3ccccc3C=Cc3ccccc32)C1` (centres undefined), which activity change, negative = inhibition is on record?
Answer: inactive: 14.4%

Question: `COc1ccc(C(=O)NCC2(N(C)C)CCCCC2)cc1` was tested. Which activity change, negative = inhibition did it give?
Answer: inactive: -3.06%

Question: With `C=CCN1CCN(CCOC(=O)C(O)(c2ccccc2)c2ccccc2)CC1` as the molecule, how does the activity change, negative = inhibition read?
Answer: inactive: 6.97%

Question: `O=C(NCC1(N2CCCCC2)CCCCC1)c1cc(F)c(F)cc1Cl` was tested. Which activity change, negative = inhibition did it give?
Answer: inactive: 13.9%

Question: With `CN1[C@@H]2CC[C@H]1CC(OC(=O)C(O)(c1ccccc1)c1ccccc1)C2` (some centres undefined) as the molecule, how does the activity change, negative = inhibition read?
Answer: inactive: 26.1%

Question: Which activity change, negative = inhibition does the source give for `O=C(NCC1(N2CCCCC2)CCCCC1)c1cc([N+](=O)[O-])ccc1Cl` here?
Answer: inactive: 0.989%

Question: Which activity change, negative = inhibition does the source give for `Cc1ccc(C(=O)NCC2(N3CCCCC3)CCCCC2)cc1` here?
Answer: inactive: -0.0843%

Question: `CC(C)N1C(=O)CC2(CCN(CCOC(=O)C(O)(c3ccccc3)c3ccccc3)CC2)C1=O` was tested. Which activity change, negative = inhibition did it give?
Answer: inactive: 20.5%

Question: With `CCN(CC)CC(C)C(C)OC(=O)C(O)(c1ccccc1)c1ccccc1` (centres undefined) as the molecule, how does the activity change, negative = inhibition read?
Answer: inactive: 0.431%

Question: How did the activity change, negative = inhibition turn out when `COc1cc(SC)ccc1C(=O)NCC1(N(C)C)CCCCC1` was run?
Answer: inactive: -0.51%

Question: For `O=C(OC1CN2CCC1CC2)C(CO)(c1ccccc1)c1ccccc1` (centres undefined), which activity change, negative = inhibition is on record?
Answer: inactive: -2.64%

Question: `CN(C)c1cccc(C(=O)NCC2(N(C)C)CCCCC2)c1` was tested. Which activity change, negative = inhibition did it give?
Answer: inactive: 36.7%

Question: How did the activity change, negative = inhibition turn out when `CC(C)Oc1ccc(C(=O)NCC2(N(C)C)CCCCC2)cc1` was run?
Answer: inactive: -16.8%

Question: How did the activity change, negative = inhibition turn out when `COc1ccc(Br)c(C(=O)NCC2(N3CCCCC3)CCCCC2)c1` was run?
Answer: inactive: -5.1%

Question: With `COc1cc(C(=O)NCC2(N(C)C)CCCCC2)c([N+](=O)[O-])cc1OC` as the molecule, how does the activity change, negative = inhibition read?
Answer: inactive: 18.1%

Question: How did the activity change, negative = inhibition turn out when `CN(C)C1(CNC(=O)c2ccc(Br)cc2)CCCCC1` was run?
Answer: inactive: -6.22%

Question: How did the activity change, negative = inhibition turn out when `O=C(NCC1(N2CCCCC2)CCCCC1)c1cccc(Cl)c1` was run?
Answer: inactive: 2.31%

Question: With `COc1cccc(C(=O)NCC2(N3CCCCC3)CCCCC2)c1` as the molecule, how does the activity change, negative = inhibition read?
Answer: inactive: -11.3%

Question: Which activity change, negative = inhibition does the source give for `COc1ccc(Cl)cc1C(=O)NCC1(N(C)C)CCCCC1` here?
Answer: inactive: -0.608%
